Test results taken from ChEMBL document CHEMBL2321662, “Azepines and piperidines with dual norepinephrine dopamine uptake inhibition and antidepressant activity” (ACS Med Chem Lett, 2013).

The chains behind the UniProt entries cited, without tags or fusion partners.
UniProt Q63380, whole entry: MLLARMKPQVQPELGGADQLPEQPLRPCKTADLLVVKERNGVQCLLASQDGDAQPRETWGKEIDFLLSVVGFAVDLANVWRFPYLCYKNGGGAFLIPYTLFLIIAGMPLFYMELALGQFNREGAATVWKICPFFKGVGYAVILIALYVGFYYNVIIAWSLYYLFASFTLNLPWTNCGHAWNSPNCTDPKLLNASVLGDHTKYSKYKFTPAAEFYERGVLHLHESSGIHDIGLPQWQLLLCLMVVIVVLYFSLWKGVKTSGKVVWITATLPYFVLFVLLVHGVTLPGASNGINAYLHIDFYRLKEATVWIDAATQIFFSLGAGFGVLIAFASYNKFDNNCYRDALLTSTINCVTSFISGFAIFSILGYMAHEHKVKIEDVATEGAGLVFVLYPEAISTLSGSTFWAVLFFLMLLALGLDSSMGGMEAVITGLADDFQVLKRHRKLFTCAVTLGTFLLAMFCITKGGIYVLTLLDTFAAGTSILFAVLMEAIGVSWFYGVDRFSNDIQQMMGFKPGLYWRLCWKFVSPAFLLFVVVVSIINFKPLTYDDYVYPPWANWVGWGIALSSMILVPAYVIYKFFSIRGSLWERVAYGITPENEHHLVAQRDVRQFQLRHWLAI

Target: Transporter (Rattus norvegicus, UniProt Q63380)
Assay: Inhibition of NET in rat synaptosomal membrane
Assay type: cell membranes

In the case of CN1Cc2c(N)cccc2C(c2ccccc2)C1 (racemic) [NOMIFENSINE], the Ki is reported as 4 nM.
